Measurements reported in article PMC5967867, “An NMDAR positive and negative allosteric modulator series share a binding site and are interconverted by methyl groups” (eLife, 2018).

Sequences of proteins named here, by UniProt entry; tags and fusion partners are left off. Residues count along the entry.
UniProt Q00961, 20-1237 limits assumed: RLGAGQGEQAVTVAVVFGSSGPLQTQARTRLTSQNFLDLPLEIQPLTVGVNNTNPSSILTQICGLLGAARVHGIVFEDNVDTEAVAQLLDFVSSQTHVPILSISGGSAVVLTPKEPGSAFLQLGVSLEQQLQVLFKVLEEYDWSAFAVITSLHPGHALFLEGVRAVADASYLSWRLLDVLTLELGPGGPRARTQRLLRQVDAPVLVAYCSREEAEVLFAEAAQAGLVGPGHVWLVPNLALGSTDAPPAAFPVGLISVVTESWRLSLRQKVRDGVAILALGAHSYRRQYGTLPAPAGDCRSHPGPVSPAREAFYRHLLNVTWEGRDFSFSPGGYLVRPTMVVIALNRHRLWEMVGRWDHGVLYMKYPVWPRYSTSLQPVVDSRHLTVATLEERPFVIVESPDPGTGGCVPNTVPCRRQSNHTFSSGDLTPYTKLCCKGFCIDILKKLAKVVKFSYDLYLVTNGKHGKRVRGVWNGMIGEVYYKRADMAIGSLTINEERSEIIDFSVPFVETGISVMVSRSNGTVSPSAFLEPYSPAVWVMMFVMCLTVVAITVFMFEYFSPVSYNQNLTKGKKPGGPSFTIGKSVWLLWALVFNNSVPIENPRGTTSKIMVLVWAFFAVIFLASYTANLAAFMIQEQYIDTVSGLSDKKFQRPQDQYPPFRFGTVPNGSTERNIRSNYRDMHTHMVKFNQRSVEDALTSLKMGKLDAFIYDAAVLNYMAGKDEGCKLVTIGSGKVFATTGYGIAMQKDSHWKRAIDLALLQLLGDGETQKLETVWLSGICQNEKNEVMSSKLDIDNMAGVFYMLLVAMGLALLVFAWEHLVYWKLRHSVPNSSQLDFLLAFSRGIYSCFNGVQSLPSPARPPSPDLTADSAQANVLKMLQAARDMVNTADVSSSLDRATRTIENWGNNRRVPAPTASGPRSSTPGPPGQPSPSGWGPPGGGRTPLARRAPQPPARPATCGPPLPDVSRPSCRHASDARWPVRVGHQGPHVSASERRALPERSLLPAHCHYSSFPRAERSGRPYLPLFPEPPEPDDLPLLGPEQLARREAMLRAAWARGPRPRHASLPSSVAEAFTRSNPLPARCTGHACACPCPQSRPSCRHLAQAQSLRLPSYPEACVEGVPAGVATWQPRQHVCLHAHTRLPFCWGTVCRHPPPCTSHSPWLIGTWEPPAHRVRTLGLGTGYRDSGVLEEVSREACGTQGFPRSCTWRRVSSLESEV
UniProt Q62645, 28-1323 limits assumed: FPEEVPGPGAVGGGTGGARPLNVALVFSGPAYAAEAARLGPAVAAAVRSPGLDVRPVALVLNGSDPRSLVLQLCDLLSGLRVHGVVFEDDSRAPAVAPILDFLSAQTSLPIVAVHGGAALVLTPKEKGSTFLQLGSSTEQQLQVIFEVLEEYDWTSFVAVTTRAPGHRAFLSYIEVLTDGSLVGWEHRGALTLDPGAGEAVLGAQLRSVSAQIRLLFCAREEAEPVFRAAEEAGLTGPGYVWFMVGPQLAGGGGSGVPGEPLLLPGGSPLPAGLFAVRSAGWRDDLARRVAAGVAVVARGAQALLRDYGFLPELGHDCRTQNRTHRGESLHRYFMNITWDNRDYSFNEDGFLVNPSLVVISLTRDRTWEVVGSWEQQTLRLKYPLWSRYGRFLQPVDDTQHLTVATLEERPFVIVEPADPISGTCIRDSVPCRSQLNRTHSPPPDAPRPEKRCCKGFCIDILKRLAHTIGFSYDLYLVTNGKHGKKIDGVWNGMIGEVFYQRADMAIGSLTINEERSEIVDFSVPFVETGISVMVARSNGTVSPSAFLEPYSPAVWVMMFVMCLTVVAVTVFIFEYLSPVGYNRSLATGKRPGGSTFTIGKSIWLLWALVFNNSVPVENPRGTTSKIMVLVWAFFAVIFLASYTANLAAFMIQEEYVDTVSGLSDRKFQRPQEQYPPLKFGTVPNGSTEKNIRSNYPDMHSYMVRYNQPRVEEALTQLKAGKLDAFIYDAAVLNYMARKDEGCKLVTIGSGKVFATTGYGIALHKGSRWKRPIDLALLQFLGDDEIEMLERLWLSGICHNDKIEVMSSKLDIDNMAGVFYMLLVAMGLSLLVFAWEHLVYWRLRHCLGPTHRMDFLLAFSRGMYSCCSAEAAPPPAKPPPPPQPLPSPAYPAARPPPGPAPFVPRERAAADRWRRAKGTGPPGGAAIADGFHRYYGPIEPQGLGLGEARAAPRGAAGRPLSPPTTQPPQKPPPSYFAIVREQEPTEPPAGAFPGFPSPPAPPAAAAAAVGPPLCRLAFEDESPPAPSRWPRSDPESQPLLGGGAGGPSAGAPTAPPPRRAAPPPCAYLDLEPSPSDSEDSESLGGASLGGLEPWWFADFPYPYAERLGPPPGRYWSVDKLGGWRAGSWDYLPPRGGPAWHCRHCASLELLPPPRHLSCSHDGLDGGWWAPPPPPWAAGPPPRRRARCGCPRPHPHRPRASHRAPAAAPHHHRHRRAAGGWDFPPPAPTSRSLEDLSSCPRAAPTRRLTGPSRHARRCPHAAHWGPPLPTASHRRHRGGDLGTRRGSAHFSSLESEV
UniProt Q00959, 23-1464 limits assumed: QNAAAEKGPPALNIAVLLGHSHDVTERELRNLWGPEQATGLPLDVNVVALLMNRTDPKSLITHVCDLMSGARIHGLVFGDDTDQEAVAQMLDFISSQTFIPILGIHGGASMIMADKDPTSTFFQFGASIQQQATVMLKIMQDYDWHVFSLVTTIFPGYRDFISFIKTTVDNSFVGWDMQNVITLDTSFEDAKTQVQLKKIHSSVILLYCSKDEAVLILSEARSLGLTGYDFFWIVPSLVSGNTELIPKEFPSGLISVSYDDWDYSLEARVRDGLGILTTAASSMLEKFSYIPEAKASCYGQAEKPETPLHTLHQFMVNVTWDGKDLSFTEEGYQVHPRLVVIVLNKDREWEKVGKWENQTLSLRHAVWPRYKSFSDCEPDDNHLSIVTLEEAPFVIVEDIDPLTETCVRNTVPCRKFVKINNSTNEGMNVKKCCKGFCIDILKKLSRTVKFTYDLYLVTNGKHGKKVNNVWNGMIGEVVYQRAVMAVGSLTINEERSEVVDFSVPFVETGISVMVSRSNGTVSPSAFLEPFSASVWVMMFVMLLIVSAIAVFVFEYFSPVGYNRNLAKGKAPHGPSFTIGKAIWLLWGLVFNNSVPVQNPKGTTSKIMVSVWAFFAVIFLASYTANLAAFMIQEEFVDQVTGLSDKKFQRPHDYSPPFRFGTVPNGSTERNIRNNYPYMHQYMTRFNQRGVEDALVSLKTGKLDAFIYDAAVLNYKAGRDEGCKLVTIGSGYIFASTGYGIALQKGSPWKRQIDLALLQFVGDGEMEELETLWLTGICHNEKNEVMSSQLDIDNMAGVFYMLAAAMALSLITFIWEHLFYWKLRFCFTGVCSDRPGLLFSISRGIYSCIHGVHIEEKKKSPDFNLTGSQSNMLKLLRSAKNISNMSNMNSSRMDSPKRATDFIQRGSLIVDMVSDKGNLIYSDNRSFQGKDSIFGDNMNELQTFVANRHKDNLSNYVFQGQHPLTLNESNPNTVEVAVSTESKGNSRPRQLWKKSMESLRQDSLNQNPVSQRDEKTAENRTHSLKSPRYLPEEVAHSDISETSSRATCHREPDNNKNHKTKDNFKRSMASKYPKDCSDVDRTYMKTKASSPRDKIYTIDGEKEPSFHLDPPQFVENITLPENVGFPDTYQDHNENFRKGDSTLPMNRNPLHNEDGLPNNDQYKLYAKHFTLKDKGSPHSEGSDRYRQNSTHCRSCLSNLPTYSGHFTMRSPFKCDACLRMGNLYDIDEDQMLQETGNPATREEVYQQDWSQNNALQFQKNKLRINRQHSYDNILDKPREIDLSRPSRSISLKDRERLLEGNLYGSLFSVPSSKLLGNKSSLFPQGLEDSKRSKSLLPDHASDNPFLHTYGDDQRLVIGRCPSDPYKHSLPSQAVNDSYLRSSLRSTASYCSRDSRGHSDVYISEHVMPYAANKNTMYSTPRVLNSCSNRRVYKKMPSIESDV
UniProt Q00960, 27-1482 limits assumed: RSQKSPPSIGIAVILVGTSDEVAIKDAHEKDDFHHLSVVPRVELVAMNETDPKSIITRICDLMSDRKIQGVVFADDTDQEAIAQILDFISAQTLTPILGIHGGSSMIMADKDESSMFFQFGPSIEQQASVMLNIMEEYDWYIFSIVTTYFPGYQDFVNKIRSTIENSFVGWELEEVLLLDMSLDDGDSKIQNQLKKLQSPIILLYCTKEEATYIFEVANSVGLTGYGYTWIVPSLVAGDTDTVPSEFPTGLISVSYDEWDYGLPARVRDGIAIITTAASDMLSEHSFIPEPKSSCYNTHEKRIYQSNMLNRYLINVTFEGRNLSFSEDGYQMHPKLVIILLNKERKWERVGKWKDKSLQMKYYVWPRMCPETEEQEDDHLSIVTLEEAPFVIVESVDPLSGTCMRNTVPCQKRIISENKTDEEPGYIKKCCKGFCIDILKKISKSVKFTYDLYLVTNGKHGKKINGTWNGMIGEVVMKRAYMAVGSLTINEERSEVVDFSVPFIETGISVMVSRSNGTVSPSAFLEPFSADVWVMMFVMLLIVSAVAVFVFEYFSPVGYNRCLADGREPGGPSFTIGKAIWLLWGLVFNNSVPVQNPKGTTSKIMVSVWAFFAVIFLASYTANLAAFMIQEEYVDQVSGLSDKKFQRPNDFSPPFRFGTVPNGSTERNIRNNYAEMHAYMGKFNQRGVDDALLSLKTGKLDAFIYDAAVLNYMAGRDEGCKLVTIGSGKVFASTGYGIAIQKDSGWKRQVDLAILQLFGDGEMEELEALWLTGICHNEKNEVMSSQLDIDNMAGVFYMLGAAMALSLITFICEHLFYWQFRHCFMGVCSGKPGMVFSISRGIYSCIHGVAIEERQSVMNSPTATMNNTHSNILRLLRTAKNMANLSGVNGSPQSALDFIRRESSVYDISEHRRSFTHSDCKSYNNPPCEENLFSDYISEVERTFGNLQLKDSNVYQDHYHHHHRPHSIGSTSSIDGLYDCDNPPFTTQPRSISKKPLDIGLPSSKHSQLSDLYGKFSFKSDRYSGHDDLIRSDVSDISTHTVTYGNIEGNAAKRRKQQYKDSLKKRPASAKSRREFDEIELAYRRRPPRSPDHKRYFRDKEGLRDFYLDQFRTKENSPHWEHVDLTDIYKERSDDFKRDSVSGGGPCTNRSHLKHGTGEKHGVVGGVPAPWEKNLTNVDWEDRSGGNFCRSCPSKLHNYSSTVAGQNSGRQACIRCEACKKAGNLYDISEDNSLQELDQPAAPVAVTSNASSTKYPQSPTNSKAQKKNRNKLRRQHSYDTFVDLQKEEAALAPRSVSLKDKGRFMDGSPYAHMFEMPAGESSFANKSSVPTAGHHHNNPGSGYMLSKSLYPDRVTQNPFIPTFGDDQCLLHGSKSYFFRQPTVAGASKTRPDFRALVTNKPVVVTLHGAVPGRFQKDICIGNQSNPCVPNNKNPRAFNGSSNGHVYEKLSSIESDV

What was measured:
Type in all cases: cell-based
GluN1/GluN2C NMDARs = GluN1/GluN2C NMDARs (Rattus norvegicus, UniProt P35439+Q00961); assay: Two-electrode voltage-clamp recordings, Xenopus laevis oocytes expressing GluN1/GluN2C; settings: saturating glutamate/glycine 100/30 µM; mean ± SEM
GluN1/GluN2D NMDARs [1] = biological target: T1, GluN1/GluN2D NMDARs (Rattus norvegicus, UniProt P35439+Q62645); assay: Two-electrode voltage-clamp recordings, Xenopus laevis oocytes expressing GluN1/GluN2D; settings: for IC50: read-out: IC50 (µM) [conf. int.], glutamate/glycine 100/30 µM, no second modulator (+EU1794-27 0 µM); for Maximal Degree of Modulation (% of control): mean ± SEM
GluN1/GluN2A NMDARs = GluN1/GluN2A NMDARs (Rattus norvegicus, UniProt P35439+Q00959); assay: Two-electrode voltage-clamp recordings, Xenopus laevis oocytes expressing GluN1/GluN2A; settings: saturating glutamate/glycine 100/30 µM; mean ± SEM
GluN1/GluN2D NMDARs [2] = biological target: T1, GluN1/GluN2D NMDARs; assay: Whole cell patch-clamp recordings, HEK293 cells expressing GluN1/GluN2D; settings: 10 µM; 100/30 µM glutamate/glycine
GluN1/GluN2B NMDARs = GluN1/GluN2B NMDARs (Rattus norvegicus, UniProt P35439+Q00960); assay: Two-electrode voltage-clamp recordings, Xenopus laevis oocytes expressing GluN1/GluN2B; settings: saturating glutamate/glycine 100/30 µM; mean ± SEM
[3] = saturating glutamate/glycine 100/30 µM

CCOC(=O)c1c(NC(=O)CC2SC(=N)NC2=O)sc2c1CCCC2 (single isomer, unassigned) [(+)-EU1794-4]
Maximal Degree of Modulation (% of control) (GluN1/GluN2C NMDARs): 50 ± 4 % of control | IC50 (GluN1/GluN2D NMDARs [1]): 3.5 µM | Maximal Degree of Modulation (% of control) (GluN1/GluN2D NMDARs [1]; [3]): 47 ± 6 % of control | Maximal Degree of Modulation (% of control) (GluN1/GluN2A NMDARs): 41 ± 6 % of control

CC(C)(C)OC(=O)c1c(NC(=O)CC2SC(=N)NC2=O)sc2c1CCCC2 (single isomer, unassigned) [(+)-EU1794-27]
effect on steady-state GluN1/GluN2D responses in HEK cells (GluN1/GluN2D NMDARs [2]): slight inhibitory effect | Maximal Degree of Modulation (% of control) (GluN1/GluN2C NMDARs): 160 ± 6.2 % of control | Maximal Degree of Modulation (% of control) (GluN1/GluN2D NMDARs [1]; [3]): 130 ± 4.7 % of control

CCOC(=O)c1c(NC(=O)CC2SC(=N)NC2=O)sc2c1CCCC2 (single isomer, unassigned) [(-)-EU1794-4]
Maximal Degree of Modulation (% of control) (GluN1/GluN2C NMDARs): 47 ± 1 % of control | IC50 (GluN1/GluN2D NMDARs [1]): 0.46 µM | Maximal Degree of Modulation (% of control) (GluN1/GluN2D NMDARs [1]; [3]): 54 ± 3 % of control | Maximal Degree of Modulation (% of control) (GluN1/GluN2A NMDARs): 17 ± 10 % of control

CC(C)(C)OC(=O)c1c(NC(=O)CC2SC(=N)NC2=O)sc2c1CCCC2 (single isomer, unassigned) [(-)-EU1794-27]
effect on steady-state GluN1/GluN2D responses in HEK cells (GluN1/GluN2D NMDARs [2]): potentiated responses | Maximal Degree of Modulation (% of control) (GluN1/GluN2C NMDARs): 260 ± 24 % of control | EC50 (GluN1/GluN2D NMDARs [1]; read-out: EC50 (µM) [conf. int.], saturating glutamate/glycine 100/30 µM, mean [95% CI]): 8.2 µM | Maximal Degree of Modulation (% of control) (GluN1/GluN2D NMDARs [1]; [3]): 340 ± 21 % of control | Maximal Degree of Modulation (% of control) (GluN1/GluN2B NMDARs): 170 ± 10 % of control | Maximal Degree of Modulation (% of control) (GluN1/GluN2A NMDARs): 67 ± 5 % of control
